Experimental data from patent US20050282258A1 (priority 2004, published 2005).

System: strain MC4100/pHYD915
Test: Surviving fraction of cells after MNNG mutagenesis
Conditions: MNNG 50 micrograms/ml, 30 minutes at 37° C., 0.1 M citrate buffer pH 5.5

CN(N=O)C(=N)N[N+](=O)[O-]
surviving fraction of the cells after MNNG treatment: about 10%
